The values that follow are results of earlier work, collected in patent US12628856B2, “Nutritional composition having lipophilic compounds with improved solubility and bioavailability” (Abbott Laboratories, priority 2013, dated 2026).

The conditions of this data set: Kd Source: Published; read-out: Lutein Kd; cited from earlier work.

On to “HSA: reference protein with published lutein Kd [reference compound]”, for which the Kd was 1690 nM.

One may read the Kd as the constant that tells how readily two partners part at equilibrium.
